# Experimental data reported in article PMC5365645, “Preclinical Pharmacokinetics and Pharmacodynamic Target of SCY-078, a First-in-Class Orally Active Antifungal Glucan Synthesis Inhibitor, in Murine Models of Disseminated Candidiasis” (Antimicrobial Agents and Chemotherapy, 2017).
# Tested on: C. albicans MY1055
# Assay: Immediate treatment murine model of disseminated candidiasis
# Conditions: SCY-078 doses of ≥12.5 mg/kg BID oral
smiles,measurement,value
"CC(C)[C@@H](C)[C@@]1(C)CC[C@]2(C)[C@H]3CC[C@@H]4[C@@]5(COC[C@@]4(C)[C@@H](OC[C@](C)(N)C(C)(C)C)[C@H](n4ncnc4-c4ccncc4)C5)C3=CC[C@@]2(C)[C@@H]1C(=O)O [SCY-078, (1S,4aR,6aS,7R,8R,10aR,10bR,12aR,14R,15R)-15-[[(2R)-2-amino-2,3,3-trimethylbutyl]oxy]-8-[(1R)-1,2-dimethylpropyl]-14-[5-(4-pyridinyl)-1H-1,2,4-triazol-1-yl]-1,6,6a,7,8,9,10,10a,10b,11,12,12a-dodecahydro-1,6a,8,10a-tetramethyl-4H-1,4a-propano-2H-phenanthro[1,2-c]pyran-7-carboxylic acid]",Clearance in kidney fungal burden,100%
